In publication PMC5864910, “Mutacin 1140 Lantibiotic Variants Are Efficacious Against Clostridium difficile Infection” (Frontiers in Microbiology, 2018):
Where two headings read alike, the source gives them in different places.

Chains of the proteins cited; added tags and fusions are not shown. Lines headed by an entry give the natural chain unless they say otherwise; changes in a name come on top. Residues count along the entry.
UniProt P08588, whole entry: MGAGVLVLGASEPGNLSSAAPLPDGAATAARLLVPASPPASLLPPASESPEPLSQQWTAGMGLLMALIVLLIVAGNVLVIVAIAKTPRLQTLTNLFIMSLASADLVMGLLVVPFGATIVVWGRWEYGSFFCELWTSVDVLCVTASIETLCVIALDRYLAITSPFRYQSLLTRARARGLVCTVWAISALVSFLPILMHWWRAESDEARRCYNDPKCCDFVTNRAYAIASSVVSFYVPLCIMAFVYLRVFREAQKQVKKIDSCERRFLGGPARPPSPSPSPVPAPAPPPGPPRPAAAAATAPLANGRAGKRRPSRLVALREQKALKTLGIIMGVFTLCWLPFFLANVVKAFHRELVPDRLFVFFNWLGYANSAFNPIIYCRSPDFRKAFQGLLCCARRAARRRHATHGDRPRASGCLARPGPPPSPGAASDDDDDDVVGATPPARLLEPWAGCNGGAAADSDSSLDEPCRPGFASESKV
UniProt P35372, whole entry: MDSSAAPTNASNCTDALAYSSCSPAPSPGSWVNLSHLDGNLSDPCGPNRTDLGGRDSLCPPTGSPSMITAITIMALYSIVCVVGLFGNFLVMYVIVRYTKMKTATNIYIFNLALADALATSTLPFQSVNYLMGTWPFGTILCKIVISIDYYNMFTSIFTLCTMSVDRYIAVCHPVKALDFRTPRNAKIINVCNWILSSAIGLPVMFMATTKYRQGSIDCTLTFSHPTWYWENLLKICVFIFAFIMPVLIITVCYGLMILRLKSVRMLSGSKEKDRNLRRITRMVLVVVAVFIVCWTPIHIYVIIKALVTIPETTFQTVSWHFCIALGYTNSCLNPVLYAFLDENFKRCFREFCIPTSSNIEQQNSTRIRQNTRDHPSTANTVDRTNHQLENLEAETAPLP
UniProt P28223, whole entry: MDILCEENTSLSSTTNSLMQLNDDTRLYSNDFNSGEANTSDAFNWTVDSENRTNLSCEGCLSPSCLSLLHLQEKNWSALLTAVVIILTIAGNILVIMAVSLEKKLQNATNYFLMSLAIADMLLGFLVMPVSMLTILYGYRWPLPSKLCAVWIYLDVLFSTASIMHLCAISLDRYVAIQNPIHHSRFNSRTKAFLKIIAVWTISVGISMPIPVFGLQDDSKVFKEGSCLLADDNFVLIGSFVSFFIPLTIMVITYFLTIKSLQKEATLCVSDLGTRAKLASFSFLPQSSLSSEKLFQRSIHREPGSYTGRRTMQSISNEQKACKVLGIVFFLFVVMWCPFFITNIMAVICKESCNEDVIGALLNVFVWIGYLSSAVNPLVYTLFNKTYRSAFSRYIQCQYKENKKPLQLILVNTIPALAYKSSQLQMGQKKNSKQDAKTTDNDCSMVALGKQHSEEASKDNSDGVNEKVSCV
UniProt P37288, whole entry: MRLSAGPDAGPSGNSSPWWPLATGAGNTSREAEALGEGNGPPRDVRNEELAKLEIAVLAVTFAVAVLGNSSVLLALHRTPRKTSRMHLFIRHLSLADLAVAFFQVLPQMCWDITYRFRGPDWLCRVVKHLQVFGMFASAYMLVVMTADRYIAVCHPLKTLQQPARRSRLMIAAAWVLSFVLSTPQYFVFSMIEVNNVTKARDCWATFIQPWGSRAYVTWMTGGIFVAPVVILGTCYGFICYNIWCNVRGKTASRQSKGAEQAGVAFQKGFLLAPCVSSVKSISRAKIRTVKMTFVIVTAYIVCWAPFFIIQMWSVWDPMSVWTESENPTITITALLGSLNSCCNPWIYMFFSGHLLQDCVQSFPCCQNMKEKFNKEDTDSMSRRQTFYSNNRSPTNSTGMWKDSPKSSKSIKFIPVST
UniProt P23975, whole entry: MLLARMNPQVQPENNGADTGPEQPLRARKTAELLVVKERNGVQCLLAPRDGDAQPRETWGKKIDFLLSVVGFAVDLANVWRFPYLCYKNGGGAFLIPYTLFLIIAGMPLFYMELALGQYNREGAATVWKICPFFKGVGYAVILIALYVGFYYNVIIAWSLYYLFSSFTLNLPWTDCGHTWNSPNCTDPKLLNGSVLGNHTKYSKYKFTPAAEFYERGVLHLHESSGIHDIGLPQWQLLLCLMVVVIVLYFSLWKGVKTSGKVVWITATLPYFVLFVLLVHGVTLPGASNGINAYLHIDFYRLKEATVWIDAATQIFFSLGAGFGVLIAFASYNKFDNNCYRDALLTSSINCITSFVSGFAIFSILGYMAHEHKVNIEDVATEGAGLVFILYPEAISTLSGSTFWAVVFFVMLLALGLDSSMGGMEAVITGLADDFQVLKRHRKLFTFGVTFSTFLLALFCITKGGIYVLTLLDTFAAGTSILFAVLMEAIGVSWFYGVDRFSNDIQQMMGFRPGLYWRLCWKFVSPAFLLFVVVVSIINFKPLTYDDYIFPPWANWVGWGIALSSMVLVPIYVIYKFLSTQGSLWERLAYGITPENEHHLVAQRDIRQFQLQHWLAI
UniProt Q14432: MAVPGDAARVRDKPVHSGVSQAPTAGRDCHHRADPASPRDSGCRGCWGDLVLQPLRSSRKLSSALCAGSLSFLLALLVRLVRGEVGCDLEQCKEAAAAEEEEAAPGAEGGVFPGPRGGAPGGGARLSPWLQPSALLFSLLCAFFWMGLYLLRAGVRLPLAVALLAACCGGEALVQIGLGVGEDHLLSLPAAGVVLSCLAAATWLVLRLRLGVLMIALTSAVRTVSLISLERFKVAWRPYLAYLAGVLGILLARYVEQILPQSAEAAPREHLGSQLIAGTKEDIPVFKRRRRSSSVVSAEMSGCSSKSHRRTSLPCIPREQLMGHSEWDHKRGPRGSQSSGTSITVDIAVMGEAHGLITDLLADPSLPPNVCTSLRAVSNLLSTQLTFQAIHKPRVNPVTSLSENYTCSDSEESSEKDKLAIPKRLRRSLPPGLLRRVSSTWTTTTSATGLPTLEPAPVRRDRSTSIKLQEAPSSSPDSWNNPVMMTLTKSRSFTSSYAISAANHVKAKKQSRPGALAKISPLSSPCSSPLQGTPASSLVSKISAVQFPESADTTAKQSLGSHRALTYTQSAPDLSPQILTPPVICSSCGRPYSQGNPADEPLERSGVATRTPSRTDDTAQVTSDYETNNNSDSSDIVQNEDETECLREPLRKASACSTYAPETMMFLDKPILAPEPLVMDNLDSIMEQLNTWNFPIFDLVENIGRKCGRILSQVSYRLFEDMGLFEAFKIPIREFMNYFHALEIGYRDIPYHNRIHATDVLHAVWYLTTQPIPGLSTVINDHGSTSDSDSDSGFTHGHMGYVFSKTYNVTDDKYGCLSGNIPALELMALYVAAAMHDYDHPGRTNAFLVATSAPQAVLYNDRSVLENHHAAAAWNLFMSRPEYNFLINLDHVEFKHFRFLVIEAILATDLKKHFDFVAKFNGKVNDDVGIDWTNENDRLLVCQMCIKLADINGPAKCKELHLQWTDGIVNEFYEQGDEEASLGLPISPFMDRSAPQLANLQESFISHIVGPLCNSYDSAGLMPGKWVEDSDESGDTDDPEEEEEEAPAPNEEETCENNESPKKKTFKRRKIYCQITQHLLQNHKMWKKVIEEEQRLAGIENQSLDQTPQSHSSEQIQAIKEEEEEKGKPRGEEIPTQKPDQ
UniProt P35367, whole entry: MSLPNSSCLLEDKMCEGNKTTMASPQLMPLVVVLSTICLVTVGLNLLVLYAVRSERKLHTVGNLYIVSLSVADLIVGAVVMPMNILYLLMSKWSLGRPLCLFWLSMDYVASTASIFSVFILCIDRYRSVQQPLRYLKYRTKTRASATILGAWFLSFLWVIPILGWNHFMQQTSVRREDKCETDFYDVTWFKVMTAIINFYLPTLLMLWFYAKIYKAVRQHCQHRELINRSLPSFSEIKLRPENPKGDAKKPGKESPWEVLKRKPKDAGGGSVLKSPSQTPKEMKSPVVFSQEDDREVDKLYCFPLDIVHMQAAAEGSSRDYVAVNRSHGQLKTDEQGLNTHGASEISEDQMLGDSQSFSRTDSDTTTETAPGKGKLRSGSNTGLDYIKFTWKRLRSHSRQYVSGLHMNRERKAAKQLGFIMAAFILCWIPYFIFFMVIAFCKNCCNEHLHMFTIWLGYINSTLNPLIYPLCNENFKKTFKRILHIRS
UniProt P25021, whole entry: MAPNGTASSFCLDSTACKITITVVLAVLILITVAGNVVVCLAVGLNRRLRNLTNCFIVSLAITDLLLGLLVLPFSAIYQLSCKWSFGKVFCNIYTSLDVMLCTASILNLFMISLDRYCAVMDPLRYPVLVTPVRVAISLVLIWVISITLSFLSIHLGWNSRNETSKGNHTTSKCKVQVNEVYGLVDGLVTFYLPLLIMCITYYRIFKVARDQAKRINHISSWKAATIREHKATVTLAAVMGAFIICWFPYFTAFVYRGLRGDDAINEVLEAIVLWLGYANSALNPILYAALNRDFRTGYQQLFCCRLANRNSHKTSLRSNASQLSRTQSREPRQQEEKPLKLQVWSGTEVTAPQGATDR
UniProt P41595, whole entry: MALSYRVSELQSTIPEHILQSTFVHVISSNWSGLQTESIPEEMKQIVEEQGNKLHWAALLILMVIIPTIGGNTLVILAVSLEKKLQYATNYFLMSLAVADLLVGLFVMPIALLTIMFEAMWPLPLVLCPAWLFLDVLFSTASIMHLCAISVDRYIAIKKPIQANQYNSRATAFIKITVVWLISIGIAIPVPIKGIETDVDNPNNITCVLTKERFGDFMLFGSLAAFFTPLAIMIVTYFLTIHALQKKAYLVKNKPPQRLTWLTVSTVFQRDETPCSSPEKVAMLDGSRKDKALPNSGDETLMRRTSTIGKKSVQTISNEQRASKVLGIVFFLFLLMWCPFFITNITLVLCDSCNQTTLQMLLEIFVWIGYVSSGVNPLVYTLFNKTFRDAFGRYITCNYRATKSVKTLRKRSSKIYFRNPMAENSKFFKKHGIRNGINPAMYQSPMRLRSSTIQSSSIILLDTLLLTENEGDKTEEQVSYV
UniProt P22303, 32-614: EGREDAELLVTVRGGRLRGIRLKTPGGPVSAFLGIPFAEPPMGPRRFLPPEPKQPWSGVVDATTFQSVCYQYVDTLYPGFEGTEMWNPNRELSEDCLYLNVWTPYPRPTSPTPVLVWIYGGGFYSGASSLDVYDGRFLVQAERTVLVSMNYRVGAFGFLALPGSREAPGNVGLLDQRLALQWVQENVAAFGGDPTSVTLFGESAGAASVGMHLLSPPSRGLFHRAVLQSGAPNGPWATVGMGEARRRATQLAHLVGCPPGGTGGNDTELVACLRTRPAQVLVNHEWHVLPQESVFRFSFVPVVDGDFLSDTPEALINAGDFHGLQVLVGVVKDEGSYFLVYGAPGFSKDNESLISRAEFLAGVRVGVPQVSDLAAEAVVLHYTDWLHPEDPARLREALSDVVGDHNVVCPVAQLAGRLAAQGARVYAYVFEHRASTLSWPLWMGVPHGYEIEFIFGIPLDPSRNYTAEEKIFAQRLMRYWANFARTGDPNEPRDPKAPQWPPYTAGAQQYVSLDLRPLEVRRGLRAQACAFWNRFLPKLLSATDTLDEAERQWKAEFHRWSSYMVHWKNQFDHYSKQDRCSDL

Key:
[1] = molecular target: Beta1 (Homo sapiens, UniProt P08588)
[2] = molecular target: T1, Beta2 (Homo sapiens, UniProt P07550)
[3] = molecular target: T2, GR (Homo sapiens, UniProt P04150)
T2 sequence (P04150 1-777): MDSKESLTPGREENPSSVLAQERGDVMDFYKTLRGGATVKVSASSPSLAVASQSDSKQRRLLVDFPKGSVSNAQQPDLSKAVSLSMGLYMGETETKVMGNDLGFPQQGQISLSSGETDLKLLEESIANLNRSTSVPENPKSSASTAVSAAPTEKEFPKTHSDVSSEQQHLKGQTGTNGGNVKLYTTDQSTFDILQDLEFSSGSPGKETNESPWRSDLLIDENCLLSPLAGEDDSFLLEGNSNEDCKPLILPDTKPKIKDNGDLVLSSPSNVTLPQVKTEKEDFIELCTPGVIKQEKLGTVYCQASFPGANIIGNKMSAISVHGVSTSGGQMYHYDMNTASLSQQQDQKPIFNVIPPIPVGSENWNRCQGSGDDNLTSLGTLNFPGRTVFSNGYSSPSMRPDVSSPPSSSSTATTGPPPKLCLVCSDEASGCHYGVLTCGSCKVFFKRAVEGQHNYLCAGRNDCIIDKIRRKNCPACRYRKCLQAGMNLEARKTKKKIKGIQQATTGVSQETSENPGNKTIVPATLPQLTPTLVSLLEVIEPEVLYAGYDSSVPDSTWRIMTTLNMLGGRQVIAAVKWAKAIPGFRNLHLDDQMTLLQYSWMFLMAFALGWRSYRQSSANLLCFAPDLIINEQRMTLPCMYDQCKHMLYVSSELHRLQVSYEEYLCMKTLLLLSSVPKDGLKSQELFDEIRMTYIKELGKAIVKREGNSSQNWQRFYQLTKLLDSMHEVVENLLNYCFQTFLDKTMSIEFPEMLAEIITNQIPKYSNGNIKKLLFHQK

[4] = system: Safety Screen 44 panel of human recombinant proteins
[5] = molecular target: Mu (MOP) (Homo sapiens, UniProt P35372)
[6] = molecular target: 5-HT (2A) (Homo sapiens, UniProt P28223)
[7] = molecular target: V1a (Homo sapiens, UniProt P37288)
[8] = molecular target: NT (Homo sapiens, UniProt P23975)
[9] = molecular target: PDE3A (Homo sapiens, UniProt Q14432)
[10] = molecular target: T3, alpha1A (Homo sapiens, UniProt P35348)
T3 sequence (P35348 1-466): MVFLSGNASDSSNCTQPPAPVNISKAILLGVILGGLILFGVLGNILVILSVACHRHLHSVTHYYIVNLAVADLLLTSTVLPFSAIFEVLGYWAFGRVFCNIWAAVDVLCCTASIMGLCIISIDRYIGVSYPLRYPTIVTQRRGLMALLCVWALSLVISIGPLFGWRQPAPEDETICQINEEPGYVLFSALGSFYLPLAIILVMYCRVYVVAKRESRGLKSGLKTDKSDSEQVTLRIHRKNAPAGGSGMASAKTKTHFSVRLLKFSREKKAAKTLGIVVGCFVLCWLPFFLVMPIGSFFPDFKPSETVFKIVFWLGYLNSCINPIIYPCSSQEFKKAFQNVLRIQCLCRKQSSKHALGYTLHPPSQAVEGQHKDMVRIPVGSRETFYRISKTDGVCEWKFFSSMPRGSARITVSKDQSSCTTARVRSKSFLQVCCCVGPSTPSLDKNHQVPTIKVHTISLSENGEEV

[11] = molecular target: T1, Beta2; remark: listed apart in the source
[12] = molecular target: H1 (Homo sapiens, UniProt P35367)
[13] = molecular target: H2 (Homo sapiens, UniProt P25021)
[14] = molecular target: 5-HT (2B) (Homo sapiens, UniProt P41595)
[15] = molecular target: ACHE (Homo sapiens, UniProt P22303)
[16] = molecular target: T2, GR; remark: listed apart in the source

Compound | Cerep SafetyScreen 44 % Inhibition Beta1 [1] [%] | Cerep SafetyScreen 44 % Inhibition Beta2 [2] [%] | Cerep SafetyScreen 44 % Inhibition GR [3] [%] | Promiscuity Analysis (% of scores >50%) [4] [%] | Cerep SafetyScreen 44 % Inhibition Mu (MOP) [5] [%] | Cerep SafetyScreen 44 % Inhibition 5-HT (2A) [6] [%] | Cerep SafetyScreen 44 % Inhibition V1a [7] [%] | Cerep SafetyScreen 44 % Inhibition NT [8] [%] | Cerep SafetyScreen 44 % Inhibition PDE3A [9] [%] | Cerep SafetyScreen 44 % Inhibition alpha1A [10] [%] | Cerep SafetyScreen 44 % Inhibition Beta2 [11] [%] | Cerep SafetyScreen 44 % Inhibition H1 [12] [%] | Cerep SafetyScreen 44 % Inhibition H2 [13] [%] | Cerep SafetyScreen 44 % Inhibition 5-HT (2B) [14] [%] | Cerep SafetyScreen 44 % Inhibition ACHE [15] [%] | Cerep SafetyScreen 44 % Inhibition GR [16] [%]
C=C1NC(=O)[C@H](Cc2c[nH]c3ccccc23)NC(=O)[C@H](NC(=O)[C@H](CCCCN)NC(=O)[C@@H](N)Cc2ccccc2)CSC[C@@H](C(=O)N[C@H]2C(=O)N3CCC[C@H]3C(=O)NCC(=O)N[C@H](C(=O)N[C@@H](C)C(=O)N[C@@H](CCCNC(=N)N)C(=O)N/C(=C\C)C(=O)NCC(=O)N[C@@H]3CSC[C@@H]4NC(=O)[C@H](Cc5ccc(O)cc5)NC(=O)[C@@H](CS/C=C\NC4=O)NC(=O)[C@H](CC(N)=O)NC(=O)[C@H](Cc4ccc(O)cc4)NC3=O)CS[C@H]2C)NC(=O)[C@H](CC(C)C)NC1=O [F17Y] | 3 | 4 | -3 | – | – | – | – | – | – | – | – | – | – | – | – | –
C=C1NC(=O)[C@H](Cc2c[nH]c3ccccc23)NC(=O)[C@H](NC(=O)[C@H](CCCCN)NC(=O)[C@@H](N)Cc2ccccc2)CSC[C@@H](C(=O)N[C@H]2C(=O)N3CCC[C@H]3C(=O)NCC(=O)N[C@H](C(=O)N[C@@H](C)C(=O)N[C@@H](CCCNC(=N)N)C(=O)N/C(=C\C)C(=O)NCC(=O)N[C@@H]3CSC[C@@H]4NC(=O)[C@H](Cc5ccc(O)cc5)NC(=O)[C@@H](CS/C=C\NC4=O)NC(=O)[C@H](CC(N)=O)NC(=O)[C@H](Cc4ccccc4)NC3=O)CS[C@H]2C)NC(=O)[C@H](C)NC1=O [L6A] | – | – | – | 0.000 | 15 | -3 | 19 | 4 | -2 | -6 | -1 | -3 | -24 | 0 | -13 | -1
C=C1NC(=O)[C@H](Cc2c[nH]c3ccccc23)NC(=O)[C@H](NC(=O)[C@H](CCCCN)NC(=O)[C@@H](N)Cc2ccccc2)CSC[C@@H](C(=O)N[C@H]2C(=O)N3CCC[C@H]3C(=O)NCC(=O)N[C@H](C(=O)N[C@@H](C)C(=O)N[C@@H](C)C(=O)N/C(=C\C)C(=O)NCC(=O)N[C@@H]3CSC[C@@H]4NC(=O)[C@H](Cc5ccc(O)cc5)NC(=O)[C@@H](CS/C=C\NC4=O)NC(=O)[C@H](CC(N)=O)NC(=O)[C@H](Cc4ccccc4)NC3=O)CS[C@H]2C)NC(=O)[C@H](CC(C)C)NC1=O [R13A] | 2 | 2 | -11 | – | – | – | – | – | – | – | – | – | – | – | – | –
